## AlphaSeq binding of Ab-95 light chain variants to a spike HR2 peptide

From the AlphaSeq antibody data of Engelhart et al. 2022 (doi:10.1038/s41597-022-01779-4), copy in the FLAb collection.

Binding partner: SARS-CoV-2 spike HR2 peptide, sequence PDVDLGDISGINAS.

Parent: Ab-95, a human scFv built as VH, a 15-residue (Gly4Ser)3 linker, VL. Only the CDRs of the light chain vary.
VH: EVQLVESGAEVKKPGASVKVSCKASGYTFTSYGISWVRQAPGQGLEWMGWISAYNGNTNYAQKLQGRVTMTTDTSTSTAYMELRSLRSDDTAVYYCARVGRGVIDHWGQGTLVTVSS
VL: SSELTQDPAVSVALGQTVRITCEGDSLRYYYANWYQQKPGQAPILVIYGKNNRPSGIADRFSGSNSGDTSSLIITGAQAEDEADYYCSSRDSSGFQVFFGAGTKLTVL

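Library AAYL52 holds single substitutions and randomly drawn double and triple substitutions in the CDRs. The scFvs were displayed on barcoded MATa yeast, the peptide on MATalpha yeast. Pairs that bind mate more often; barcode pairs of the diploids are counted by sequencing. A regression on co-assayed BCL2-family reference pairs converts the normalised counts of each replicate to an apparent Kd. There are three technical replicates.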

Sequences are complete VL domains. Affinities are written as log10 Kd with Kd in nM; a lower number is a better binder. Replicates are averaged; those with no signal do not enter the mean. "n.d." means that the variant was in the library but no mating with the target was seen in that replicate; the authors take this as a sign of poor binding, and no number exists. Nonspecific signal, from three strains lacking the peptide, appeared in 28% of pairings of library AAYL52, centred on 3.91 (5% of these signals below 2.90); values are not corrected for it. Also given: how often the same scFv was detected with the empty control strains, with their mean in brackets. In this assay the parent's reference entry averaged 2.31; its copy inside this library read 2.25.

| # | VL | log10 Kd (nM) by replicate | mean log10 Kd (nM) | empty controls |
|---|---|---|---|---|
| 1 | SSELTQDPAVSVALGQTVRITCEGDSLRYYYANWYQQKPGQAPILVIYGKNNRPIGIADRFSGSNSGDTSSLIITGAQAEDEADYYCSSRTSLGFQVFFGAGTKLTVL | n.d. n.d. 3.25 | 3.25 | 0 of 9 |
| 2 | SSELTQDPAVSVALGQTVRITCEGNSLRYYTANWYQQKPGQAPILVIYGPNNRPSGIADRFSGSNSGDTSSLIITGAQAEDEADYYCSSRDSSGFQVFFGAGTKLTVL | 2.17 1.74 1.50 | 1.80 | 0 of 9 |
| 3 | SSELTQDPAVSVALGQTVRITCEGDSLRYYYVNWYQQKPGQAPILVIYGKNNRPIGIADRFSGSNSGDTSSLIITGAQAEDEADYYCSSTDSSGFQVFFGAGTKLTVL | 3.22 n.d. n.d. | 3.22 | 2 of 9 (3.45) |
| 4 | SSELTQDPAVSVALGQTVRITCEGDSLRYSYANWYQQKPGQAPILVIYGKNNRPSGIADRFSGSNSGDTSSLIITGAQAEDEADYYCSSRDSSGFQVDFGAGTKLTVL | 2.10 2.14 1.53 | 1.92 | 3 of 9 (3.37) |
| 5 | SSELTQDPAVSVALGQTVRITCEGDSLRYYYANWYQQKPGQAPILVIYGKFNNPSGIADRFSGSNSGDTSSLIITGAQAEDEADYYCSSRDSKGFQVFFGAGTKLTVL | 4.23 n.d. 3.88 | 4.06 | 5 of 9 (4.17) |
| 6 | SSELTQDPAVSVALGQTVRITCEGDSLRYYYANWYQQKPGQAPILVIYGKNLLPSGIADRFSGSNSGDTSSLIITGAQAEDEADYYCSSRDSSHFQVFFGAGTKLTVL | 4.26 n.d. 2.64 | 3.45 | 2 of 9 (4.22) |
| 7 | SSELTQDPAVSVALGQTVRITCEGDSLRYYYANWYQQKPGQAPILVIYGKNNDPSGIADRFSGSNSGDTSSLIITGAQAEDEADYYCSSRDSRIFQVFFGAGTKLTVL | 3.44 5.75 2.44 | 3.88 | 6 of 9 (4.06) |
| 8 | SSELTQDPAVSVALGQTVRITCEQDSLRYYYHNWYQQKPGQAPILVIYGKNNRPSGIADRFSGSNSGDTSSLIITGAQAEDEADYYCSSRDSSGMQVFFGAGTKLTVL | n.d. 4.58 n.d. | 4.58 | 1 of 9 (3.58) |
| 9 | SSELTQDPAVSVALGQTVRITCEGDSLRYYYANWYQQKPGQAPILVIYGKNNRPSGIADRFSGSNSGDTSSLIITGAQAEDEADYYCSSRDSSGNKVFFGAGTKLTVL | 2.50 2.68 1.79 | 2.32 | 2 of 9 (3.00) |
| 10 | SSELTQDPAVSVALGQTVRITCEGDSLRKYYANWYQQKPGQAPILVIYGYNNRPNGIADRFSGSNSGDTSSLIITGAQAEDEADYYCSSRDSSGFQVFFGAGTKLTVL | 2.85 2.53 2.57 | 2.65 | 2 of 9 (3.51) |
| 11 | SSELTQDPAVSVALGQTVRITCEGDSMRYYYKNWYQQKPGQAPILVIYGKNNRPSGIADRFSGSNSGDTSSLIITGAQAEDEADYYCSSRDSSGFQVFFGAGTKLTVL | 3.68 3.88 2.73 | 3.43 | 7 of 9 (4.13) |
| 12 | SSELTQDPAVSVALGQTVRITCEGDSSRYYYANWYQQKPGQAPILVIYGKNNRPNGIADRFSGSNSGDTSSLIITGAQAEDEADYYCSSRDSSGCQVFFGAGTKLTVL | 3.78 3.75 3.78 | 3.77 | 4 of 9 (4.04) |
| 13 | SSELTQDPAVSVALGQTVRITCEGDSSNYYYANWYQQKPGQAPILVIYGKNNRPSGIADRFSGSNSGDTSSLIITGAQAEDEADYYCSSRDSSGFQVFFGAGTKLTVL | 2.63 2.17 2.81 | 2.53 | 3 of 9 (3.62) |
| 14 | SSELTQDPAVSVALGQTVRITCAGDSLRYYYANWYQQKPGQAPILVIYGKNNRPSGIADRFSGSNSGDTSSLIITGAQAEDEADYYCSSRDSSGFTMFFGAGTKLTVL | 2.87 2.83 2.09 | 2.60 | 0 of 9 |
| 15 | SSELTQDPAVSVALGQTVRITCEGDVLRYYYANWYQQKPGQAPILVIYGKPWRPSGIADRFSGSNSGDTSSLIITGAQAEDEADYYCSSRDSSGFQVFFGAGTKLTVL | 4.36 n.d. 3.73 | 4.04 | 4 of 9 (4.40) |
| 16 | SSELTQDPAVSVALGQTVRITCWGDSLRTYYANWYQQKPGQAPILVIYGKNNRPSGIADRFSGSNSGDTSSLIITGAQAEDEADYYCSSRDYSGFQVFFGAGTKLTVL | 2.87 2.88 2.83 | 2.86 | 5 of 9 (3.92) |
| 17 | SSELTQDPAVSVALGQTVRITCEGDMLRYYYANWYQQKPGQAPILVIYGKNNRPSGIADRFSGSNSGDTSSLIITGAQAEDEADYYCSSRDSSCCQVFFGAGTKLTVL | 3.88 5.32 n.d. | 4.60 | 3 of 9 (4.49) |
| 18 | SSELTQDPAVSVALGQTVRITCEGDSLRYYYANWYQQKPGQAPILVIYGKQNRPSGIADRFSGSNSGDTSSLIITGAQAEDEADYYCSSRDSHGFQVPFGAGTKLTVL | 5.13 3.62 2.23 | 3.66 | 4 of 9 (3.44) |
| 19 | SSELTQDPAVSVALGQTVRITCEGDSLRLYYANWYQQKPGQAPILVIYGINNRPSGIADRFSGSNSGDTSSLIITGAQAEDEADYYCSSRDSSGFQVFFGAGTKLTVL | 3.37 n.d. n.d. | 3.37 | 1 of 9 (4.05) |
| 20 | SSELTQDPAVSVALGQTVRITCEGDSLRTYYANWYQQKPGQAPILVIYGKNNMPSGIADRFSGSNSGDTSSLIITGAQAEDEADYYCSSRDSQGFQVFFGAGTKLTVL | n.d. 4.55 n.d. | 4.55 | 0 of 9 |
| 21 | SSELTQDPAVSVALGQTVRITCKGDSLRYYMANWYQQKPGQAPILVIYDKNNRPSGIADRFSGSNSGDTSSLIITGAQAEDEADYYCSSRDSSGFQVFFGAGTKLTVL | 1.50 1.45 1.09 | 1.35 | 4 of 9 (4.74) |

The opening 3 entries, copied out:

| VL | log10 Kd (nM) by replicate | mean log10 Kd (nM) | empty controls |
|---|---|---|---|
| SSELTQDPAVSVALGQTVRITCEGDSLRYYYANWYQQKPGQAPILVIYGKNNRPIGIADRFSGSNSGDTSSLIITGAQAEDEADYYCSSRTSLGFQVFFGAGTKLTVL | n.d. n.d. 3.25 | 3.25 | 0 of 9 |
| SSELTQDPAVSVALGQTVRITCEGNSLRYYTANWYQQKPGQAPILVIYGPNNRPSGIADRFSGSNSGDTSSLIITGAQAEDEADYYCSSRDSSGFQVFFGAGTKLTVL | 2.17 1.74 1.50 | 1.80 | 0 of 9 |
| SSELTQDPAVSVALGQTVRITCEGDSLRYYYVNWYQQKPGQAPILVIYGKNNRPIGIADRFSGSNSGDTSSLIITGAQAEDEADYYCSSTDSSGFQVFFGAGTKLTVL | 3.22 n.d. n.d. | 3.22 | 2 of 9 (3.45) |